Values of other authors as cited in patent US20210128584A1, “USE OF GLUCOCORTICOID RECEPTOR ANTAGONISTS FOR THE TREATMENT OF AMYOTROPHIC LATERAL SCLEROSIS” (Corcept Therapeutics Incorporated, priority 2008, published 2021).

Tested on: Amyotrophic lateral sclerosis (ALS)
Settings: ALS patients

Nc1nc2ccc(OC(F)(F)F)cc2s1 [Riluzole]
prolongation of survival: two to three
